The record followed here is patent US20080014585A1, “SYNERGISTIC ACTIVATION OF REGULATORY ELEMENTS BY REL PROTEINS AND A STEROID RECEPTOR” (N.V. Organon, priority 2000, published 2008).

Sequences of proteins named here, by UniProt entry; tags and fusion partners are left off.
UniProt Q92731, whole entry: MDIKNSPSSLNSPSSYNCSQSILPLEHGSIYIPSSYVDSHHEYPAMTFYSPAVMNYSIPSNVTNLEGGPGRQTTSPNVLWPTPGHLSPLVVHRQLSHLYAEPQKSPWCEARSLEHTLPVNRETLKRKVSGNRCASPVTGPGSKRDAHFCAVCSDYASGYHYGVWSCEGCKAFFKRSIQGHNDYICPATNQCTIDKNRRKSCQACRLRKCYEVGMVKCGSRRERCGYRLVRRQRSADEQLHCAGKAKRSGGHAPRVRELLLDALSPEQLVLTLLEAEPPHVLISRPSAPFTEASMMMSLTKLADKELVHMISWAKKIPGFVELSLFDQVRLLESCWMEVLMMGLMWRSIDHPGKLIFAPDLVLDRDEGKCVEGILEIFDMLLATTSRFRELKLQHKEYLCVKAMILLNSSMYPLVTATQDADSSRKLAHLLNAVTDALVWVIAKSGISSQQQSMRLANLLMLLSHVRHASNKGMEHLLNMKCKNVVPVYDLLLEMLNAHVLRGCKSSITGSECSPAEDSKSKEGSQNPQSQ

The target in test [1] is T1, human ERβ (Homo sapiens, UniProt Q92731).
T1 construct: expressed in transfected cells; host or cells: COS-1 (monkey)
Format: cell-based. Particulars: COS-1 cells, -901luc, 10^−8 M E2 for 24 h.

Test [2] concerns the target T1, human ERβ. Format: cell-based. Particulars: COS-1 cells, -901luc, 10^−8 M E2 for 24 h. This is another data set of the same source.

For 17β-estradiol, the “effect on 5-HT1A promoter activity, ERβ cotransfected, no NF-κB” value in test [1] is “hardly had an effect”. For the same substance, in test [2], the “induction of 5-HT1A receptor promoter activity by ERβ cotransfected with NF-κB” value is “no effect”.
